For one compound, IC50 results are on record in ChEMBL document CHEMBL1153392, “Identification of a metabolically stable triazolopyrimidine-based dihydroorotate dehydrogenase inhibitor with antimalarial activity in mice” (J Med Chem, 2009).

This assay relates to Plasmodium berghei. The assay can be described thus: Inhibition of Plasmodium berghei ANKA DHODH. A digest of the protocol:
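Truncated soluble enzyme expressed in E. coli and purified. DCIP (0.12 mM) reduction followed at 600 nm with 5-10 nM enzyme, 0.2 mM L-dihydroorotate and 0.02 mM CoQD in 100 mM HEPES pH 8.0, 150 mM NaCl, 10% glycerol, 0.1% Triton, 20 °C. Triplicate points per concentration; IC50 fitted.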

As usually defined, the IC50 is the concentration at which inhibition is half-maximal. Low values mean inhibition by little substance, high ones a need for much substance. `Cc1cc(Nc2cccc(Cl)c2)n2ncnc2n1` returned an IC50 of 31 µM.
